Test results as given in patent US20070027109A1 (priority 2002, published 2007).

Columns and labels:
[1] = test system: monocyte/macrophages; assay: MTS staining for cell viability, monocyte/macrophages; type: cell-based, human
Text: Peripheral blood monocytes were isolated from normal HIV-1 negative donors by plastic adherence following ficoll hypaque purification of the buffy coat, as described above for PBMCs. In many cases the same donor used to produce the PBMC populations was also used to produce monocyte/macrophages, however unlike PBMC population monocyte/macrophage, donors were never pooled. […] The monocytes were released from the plastic by vigorous pipetting with Ca^2+ and Mg^2+ free PBS. […] The monocytes (1×10^5 per 0.2 cm well) were then cultured for six days, allowing maturation of the cells to a macrophagelike phenotype. […] Cultures were washed a final time by media removal 24 hours post infection, fresh compound added and the cultures continued for an additional six days. The assays were preformed using a standardized microtiter plate format, which uses only the inner 60 wells of a 96 well plate for assay purposes. The outer rows contain media and acts an a evaporation barrier. […] HIV p24 antigen content to assess virus replication was measured at assay termination by a commercially available p24 ELISA assay (Coulter) on cell-free supernatants, and compound cytotoxicity by MTS dye reduction. AZT, HIV-1 reverse nucleoside transcriptase inhibitor and dextransulfate, an attachment inhibitor, were used as positive control compounds and run in parallel with each determination. […]

[2] = test system: human peripheral blood mononuclear cells (PBMCs); type: cell-based
Method: The final volume per well was 200 μL. […] Wells were also examined microscopically and any abnormalities noted.
At assay termination the assay plates were stained with the soluble tetrazolium-based dye MTS (CellTiter96® Reagent Promega) to determine cell viability and quantify compound toxicity. […] At termination of the assay 20 μL of MTS reagent was added per well and incubated for 4 h at 37° C. Adhesive plate sealers were used in place of the lids, the sealed plate was inverted several times to mix the soluble formazan product and the plate was read spectrophotometrically at 490 nm with a Molecular Devices Vmax plate reader.

“sulfated dextran, 9.5% sulfur, molecular weight 30,000 [DES 9.5% Sulfation]” showed a TC50 [1] of 100 µg/mL and a TC50 [2] of 100 µg/mL.
“sulfated dextran, 12.2% sulfur, molecular weight 36,000 [DES 12.5% Sulfation]” was tested, and the TC50 [1] was 100 µg/mL and the TC50 [2] was 100 µg/mL.
